In patent US6242199A, “Assays for growth hormone secretagogue receptors” (Merck & Co., Inc., priority 1998, dated 2001):

How the values were obtained:
[1] = biological target: T1, growth hormone secretagogue receptor (GHSR), porcine anterior pituitary membranes (Sus scrofa, UniProt Q95254); test: [35S]-Compound A radioreceptor binding, porcine anterior pituitary membranes; details: competition with [35S]-Compound A
T1 construct: Frozen anterior pituitary glands from male swine (50-80 Kg); from tissue; host or cells: anterior pituitary glands of male swine (50-80 kg), crude membranes
Method: Frozen anterior pituitary glands from male swine (50-80 Kg) or from the Wistar male rats (150-200 g) were homogenized in a tissue homogenizer in ice-cold buffer (50 mM Tris-HCl buffer, pH 7.4, 5 mM MgCl2, 2.5 mM EDTA, 0.1% bovine serum albumin and 30 μg/ml bacitracin). The homogenates were centrifuged for 5 min at 1,400×g and the resulting supernatants were then centrifuged at 34,000×g for 20 min. The pellets were resuspended in same buffer to a 1,500 μg protein/ml and stored at -80° C. Protein was determined by a Bio-Rad method (Bio-Rad Laboratories, Richmond, Calif.).
Aliquots were incubated at 20° C. for 60 min and bound radioligand was separated from free by filtration through GF/C filters pretreated with 0.5% of polyethylenimine in a Brandel cell harvester. […] Assays were carried out in triplicate and experiments repeated at least three times.

[2] = biological target: growth hormone secretagogue receptor (GHSR) of swine, native receptor of the anterior pituitary (swine) (UniProt Q95254); test: competition with [35S]-Compound A on porcine anterior pituitary membranes, filtration

| Substance | pKi [1] | pKi [2] |
| --- | --- | --- |
| GHRP-6 | 8.20 |  |
| GHRP-6 (peptide) |  | 8.20 |

pKi: −log10 of the molar value.
